Results as given in article PMC3714011 (Journal of medicinal chemistry, 2013).

Columns and labels:
[1] = test system: initiator methionine of TXNL1 in HEK293T cells; assay: Initiator methionine release assay, TXNL1-3×Flag in HEK293T cells; format: cell-based, human; conditions: co-treatment 10 μM 11j and 100 nM TNP-470, p = 0.03 versus TNP-470 only
[2] = test system: iMet processing of 14-3-3γ in HDFa cells

COc1ccc(N2CCN(c3nc(-c4ccccn4)nc4ccccc34)CC2)cc1 [11j, 4-[4-(4-Methoxyphenyl)piperazin-1-yl]-2-(pyridin-2-yl)quinazoline]
[35S]-Met released from TXNL1-3×Flag relative to vehicle control [1]: 2.73 fold | inhibition of the NME of 14-3-3γ [2]: dose-dependently inhibited
